Assay results published in patent US20250084074A1, “SUBSTITUTED HETEROCYCLES AS HSET INHIBITORS” (MERCK PATENT GMBH, priority 2022, published 2025).

Chains of the proteins cited; added tags and fusions are not shown.
UniProt Q9BW19, whole entry: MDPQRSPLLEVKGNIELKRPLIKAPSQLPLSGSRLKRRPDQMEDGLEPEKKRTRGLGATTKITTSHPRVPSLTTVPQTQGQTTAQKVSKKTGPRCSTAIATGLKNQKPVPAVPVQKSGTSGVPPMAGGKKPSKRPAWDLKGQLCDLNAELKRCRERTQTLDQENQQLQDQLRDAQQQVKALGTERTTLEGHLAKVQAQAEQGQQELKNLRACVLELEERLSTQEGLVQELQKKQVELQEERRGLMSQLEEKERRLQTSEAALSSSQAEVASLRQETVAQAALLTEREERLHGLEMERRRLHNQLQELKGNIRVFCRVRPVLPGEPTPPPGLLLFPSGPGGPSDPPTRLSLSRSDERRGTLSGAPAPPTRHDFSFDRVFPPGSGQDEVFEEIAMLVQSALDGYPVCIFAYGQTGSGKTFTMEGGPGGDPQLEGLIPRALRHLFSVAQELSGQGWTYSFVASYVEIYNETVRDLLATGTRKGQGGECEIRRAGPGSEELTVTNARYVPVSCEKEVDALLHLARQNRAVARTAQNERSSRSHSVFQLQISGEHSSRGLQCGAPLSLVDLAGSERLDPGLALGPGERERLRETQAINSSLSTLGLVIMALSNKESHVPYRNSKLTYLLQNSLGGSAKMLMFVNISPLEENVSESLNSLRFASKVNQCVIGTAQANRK

Target: HSET full length protein (Homo sapiens (Human), UniProt Q9BW19)
Test: HSET ADP-Glo Assay S - 3 μM ATP
Conditions: read-out: COMBINED HSET ADP GLO IC50, 5 nM HSET, 70 μg/mL microtubule, 80 min at rt
Experimental: Example 281: Testing compounds of the present invention for inhibitory activities against HSET—HSET ADP-Glo Assay S—3 μM ATP
Reagents: (+4° C. Storage) • Paclitaxel Prod.No.TXD.01 2 mM in DMSO (from Universal Biologicals Cambridge). • Tubulin Protein (Pre-formed Microtubules): Bovine Brain Prod.No.MT001-XL Lot.025 10 mg/mL (from Universal Biologicals Cambridge).
Reagents: (−80° C. Storage) • MT001-XL—Tubulin Protein (Pre-formed Microtubules): Bovine Brain—reconstituted in buffer—15 mM PIPES pH7, 1 mM MgCl2, 20 μM paclitaxel (aliquots at 10 mg/mL) from Universal Biologicals Cambridge. • HSET full length protein—Current batch is FL HSET Prep1 (SEQ-000096_002-01_01) • Buffer is 20 mM Hepes pH 7.5, 200 mM NaCl, 2 mM TCEP, 5% glycerol (5 μL aliquots at 10.2 μM)
Reagents: (−20° C. Storage) • ADP-Glo Kinase Assay kit (Promega Prod.No.V9102) 10,000 assay points • ADP-Glo reagent (50 mL), Kinase Detection Reagent (100 mL), and Ultrapure ATP (10 mM) aliquoted […]

`CCOC(=O)c1sc(NC(=O)CCNC(=O)c2cccc(C(=O)OC)c2)nc1C` gave a pIC50 of 6.40.

pIC50: −log10 of the molar value.
